In the assay the target is fibronectin. As to the kind of experiment: Dose-dependent binding assay to immobilized fibronectin. Particulars: plate binding to immobilized human plasma fibronectin; peptides serially diluted 1:2 from 40 to 0.625; absorbance 600 nm, three wells, representative of two independent experiments; non-linear regression, GraphPad Prism; read-out: Apparent Kd (Fn). The method, then: Fig 3 Tp0751 lipocalin derived peptides directly bind host proteins. (A) Thirteen overlapping Tp0751 synthetic 24-mer peptides were evaluated for binding to immobilized fibrinogen, fibronectin, collagen type I, and collagen type IV. Average absorbance readings (600 nm) from three wells are presented with bars indicating standard error and the results are representative of two independent experiments. […] Average absorbance readings (600 nm) from three wells are presented with bars indicating standard error and the results are representative of two independent experiments. […] The strand colored in cyan reflects the overlap of p10 and p11. […]
To test for binding of synthetic Tp0751 peptides p1-p13, p1scr, p6scr, p10scr1, and p10scr2 to the host proteins fibrinogen, fibronectin, laminin, collagen type I, and collagen type IV, initial binding assays were performed as described previously. […] Average absorbance readings (600 nm) from three wells are presented with bars indicating standard error and the results are representative of two independent experiments. Plates were read at 600 nm with a BioTek enzyme-linked immunosorbent assay plate reader (Fisher Scientific, Ottawa, ON). […] Non-linear regression curves were fitted and apparent dissociation constants (K d) were calculated using GraphPad Prism data analysis software (San Diego, CA).

These results are taken from paper PMC5040251, “The Structure of Treponema pallidum Tp0751 (Pallilysin) Reveals a Non-canonical Lipocalin Fold That Mediates Adhesion to Extracellular Matrix Components and Interactions with Host Cells” (PLoS Pathogens, 2016).

SMILES strings stand for the structures.

`CC[C@H](C)[C@H](NC(=O)[C@H](CCCNC(=N)N)NC(=O)[C@@H](NC(=O)[C@H](CO)NC(=O)[C@H](CC(C)C)NC(=O)[C@H](CCCNC(=N)N)NC(=O)[C@@H](NC(=O)[C@@H](NC(=O)[C@H](CO)NC(=O)[C@@H](NC(=O)[C@H](CCCNC(=N)N)NC(=O)[C@H](Cc1ccccc1)NC(=O)[C@H](CC(C)C)NC(=O)[C@@H](NC(=O)[C@@H](NC(=O)[C@H](CCCNC(=N)N)NC(=O)[C@H](CO)NC(=O)[C@H](CCCCN)NC(=O)[C@H](CC(N)=O)NC(=O)[C@H](Cc1ccccc1)NC(=O)[C@H](CCC(=O)O)NC(=O)[C@H](CCCNC(=N)N)NC(=O)[C@H](C)NC(=O)[C@@H](NC(=O)[C@H](Cc1c[nH]cn1)NC(=O)[C@H](Cc1c[nH]cn1)NC(=O)[C@H](Cc1c[nH]cn1)NC(=O)[C@H](Cc1c[nH]cn1)NC(=O)[C@H](Cc1c[nH]cn1)NC(=O)[C@@H](N)Cc1c[nH]cn1)C(C)C)[C@@H](C)O)[C@@H](C)CC)[C@@H](C)O)C(C)C)[C@@H](C)O)[C@@H](C)O)C(=O)O` [p10scr2]: the Kd was found to be 7.9 ± 0.7 µM.
